# Reference: patent US20130116274A1, “THERAPEUTIC COMBINATIONS CONTAINING RILUZOLE” (RUTGERS, THE STATE UNIVERSITY OF NEW JERSEY, priority 2011, published 2013)
# Key:
# [1] = tested on: C8161 human melanoma xenografts; assay: C8161 xenografts in immunodeficient nude mice; assay type: in vivo; conditions: riluzole 10 mg/kg
# Method: (§1) The Institutional Review Board approved all animal studies for the Animal Care and Facilities Committee of Rutgers University. Nude mice were purchased from Taconic (Hudson, N.Y.). Cells were injected into 2 dorsal sites of each mouse at 10^6 cells per site. Tumor size was measured twice a week with a Vernier caliper and calculated as described. Once tumor volumes reached 6-10 mm^3, mice were divided into no treatment and treatment groups. […] The experiments were terminated when the xenografts in the no treatment group reached the maximum permitted size.
# C8161 human melanoma cells were inoculated into the dorsal flanks of immunodeficient nude mice. 10^6 cells were inoculated into each dorsal flank of 5-6 week-old mice. When the tumors reached tumor volumes of ˜10 mm^3, the mice were randomly divided in 5 groups with similar tumor volumes. The mice were then treated by oral gavage daily, except for […] treatment, which was administered three times a week. […] Tumor volumes were determined once a week with a vernier caliper and the experiment was terminated when tumor burden in the control animals reached maximum permitted levels.
# [2] = tested on: UACC903 human melanoma xenografts; assay: UACC903 xenografts in immunodeficient nude mice; assay type: in vivo; conditions: riluzole 10 mg/kg, sorafenib 24 mg/kg, or riluzole 5 mg/kg + sorafenib 12 mg/kg daily oral gavage; FIG. 3B; p<0.01 single agents day 18, p<0.001 combination
# Method: as §1
# Briefly, UACC903 cells were injected into the dorsal flanks of nude mice. Tumors were allowed to grow to approximately 6-10 mm^3 and mice were divided into groups to obtain relatively constant tumor volumes between each group (12 mice per group).
# [3] = tested on: A2058 melanoma cells; assay: Cell cycle analysis (propidium iodide flow cytometry), A2058; assay type: cell-based, human; conditions: riluzole 10 μM, 48 hours
# [4] = tested on: 1205Lu melanoma cells; assay: Cell cycle analysis (propidium iodide flow cytometry), 1205Lu; assay type: cell-based, human; conditions: riluzole 10 μM, 48 hours
# [5] = tested on: 1205Lu human melanoma xenografts; assay: 1205Lu xenografts in immunodeficient nude mice; assay type: in vivo; conditions: riluzole 10 mg/kg, sorafenib 24 mg/kg, or riluzole 5 mg/kg + sorafenib 12 mg/kg daily oral gavage; FIG. 3C
# Method: as §1
# [6] = tested on: UACC903 melanoma cells; assay: Cell cycle analysis (propidium iodide flow cytometry), UACC903; assay type: cell-based, human; conditions: riluzole 10 μM, 48 hours
smiles,measurement,setting,value
Nc1nc2ccc(OC(F)(F)F)cc2s1 [riluzole],tumor volume / xenograft growth,"[1]; MK2206 30 mg/kg, or riluzole 5 mg/kg + MK2206 15 mg/kg, oral gavage, FIG. 6, combination p<0.005 vs NT or vehicle",suppress the growth of the melanoma xenografts
same,tumor volume,"[1]; sorafenib 24 mg/kg, or riluzole 5 mg/kg + sorafenib 12 mg/kg daily oral gavage, FIG. 3A, p<0.001 for riluzole and combination vs NT or Veh",significant decrease in the tumor volumes
same,tumor volume,[2],statistically relevant responses
same,shift of the cell population to the subG1 phase,[3],10-to-20 fold
same,shift of the cell population to the subG1 phase,[4],10-to-20 fold
same,tumor volume response compared to UACC903 xenografts,[5],more sensitive
same,shift of the cell population to the subG1 phase,[6],10-to-20 fold
